Tested on: SPONTANEOUS HYPERTENSIVE RATS (MHS)
Assay: prevention of development of hypertension in pre-hypertensive rats, tail-cuff SBP and HR, 5 week oral treatment
Conditions: n=7, 20 mg/kg/os daily in 0.5% (w/v) Methocel, 5 weeks

C[C@]12CC[C@H]3[C@@H](CC=C4C[C@@H](O)CC[C@@]43C)[C@@H]1CC[C@@H]2/C=C/C=N/OCCN [I-g, (E,E)-17β-[3-(2-aminoethoxyimino)-1-propenyl]-androst-5-en-3β-ol]
SBP (systolic blood pressure) (controls 172+/-50): 160+/-7.8 mm Hg | HR (heart rate) (controls 380+/-6.3): 377+/-10.5 beats/min.
